Measured affinities in a library of Ab-14 light chain variants

Data: MIT Lincoln Laboratory AlphaSeq set, Li et al. 2023, doi:10.1038/s41467-023-39022-2, as distributed in FLAb.

Target peptide (SARS-CoV-2 spike, HR2 region): PDVDLGDISGINAS

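The starting antibody came from a phage panning campaign against this peptide. This is the validation round: designs drawn from the data on random variants, tested in the same kind of assay. Several design methods are mixed in this list. Affinity was read by AlphaSeq, a pooled yeast mating assay with surface-displayed partners. The frequency of each diploid, read from paired DNA barcodes, reflects how well the two displayed proteins bind. The ratio of observed to expected reads was calibrated, replicate by replicate, on BCL2-family standards whose Kd was known from biolayer interferometry. There are six technical replicates.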

Parent scFv Ab-14: VH joined to VL by a 15-residue (Gly4Ser)3 linker. Changes lie in the light chain CDRs alone.
VH: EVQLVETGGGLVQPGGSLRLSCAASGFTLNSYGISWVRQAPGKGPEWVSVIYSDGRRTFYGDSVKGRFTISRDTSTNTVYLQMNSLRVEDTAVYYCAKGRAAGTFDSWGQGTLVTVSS
VL: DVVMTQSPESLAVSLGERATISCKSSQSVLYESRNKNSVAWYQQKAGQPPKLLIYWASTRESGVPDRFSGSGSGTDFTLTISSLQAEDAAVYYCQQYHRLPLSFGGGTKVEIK

The parent's light chain CDRs are KSSQSVLYESRNKNSVA, WASTRES, QQYHRLPLS; each variant's own CDRs replace them letter for letter.
Variants here have more than six changes.
Numbers give log10(Kd / nM), so 0 is 1 nM and 3 is 1 µM. Smaller is tighter.
A mean of the replicates is given; it leaves out those without a signal.
A pair that was not seen in any replicate is written "nd"; this usually means weak binding, but a binder can also be missed.
In the paper, a design with two or fewer of six values counts as a poor binder.
As a blank, each scFv also met three strains without target: over all light chain designs, 4% of these pairings were detected, typically at 2.64 and seldom below 1.59. For each scFv, signals with the empty controls are counted beside the result.
A sequence measured in both rounds can read differently, since the two assays cover different ranges.
Of ten entries with the parent sequence, four were seen in most replicates (averages 0.34 to 2.37), three in one and three in none, so single entries are noisy.

For KLPQEVWYQSRMKNSVA, DASTRES, QQYHRLPLS, the assay gave 0.05 (6 of 6 replicates; controls 1 of 18).
For MMDNCQEGYYQQNNNVA, EMNARME, QQYGRLPLM, the assay gave 1.40 (6 of 6 replicates; controls 0 of 18).
For KLSQQDWYEQRNCNSVA, QASVREQ, QQYHRLPLS, the assay gave 0.12 (6 of 6 replicates; controls 1 of 18).
For HLSQSVDLESVHKNSIA, DLMTREE, QQYHRLPLS, the assay gave 0.18 (6 of 6 replicates; controls 0 of 18).
For NVGGEDPGQWHMKDSIA, GSSLRAE, QQYWRLPLM, the assay gave 0.11 (6 of 6 replicates; controls 0 of 18).
For VMQMERLGQGQYQNNIA, NQDLRTA, QQYYMLPLV, the assay gave 0.59 (6 of 6 replicates; controls 0 of 18).
For FIEHFGEDSNRNSKNIA, SKELRQV, QQYDRLPLS, the assay gave 0.41 (6 of 6 replicates; controls 0 of 18).
For MISDLMLHGSRNKNPIA, NASTREY, QQYHRLPLE, the assay gave 0.61 (6 of 6 replicates; controls 3 of 18).
For IISQVDAYESRSKNSIA, DQSTRGS, QQYDRLPLS, the assay gave 0.46 (6 of 6 replicates; controls 0 of 18).
For KISESMNFAQFNKQSIA, EVSTRSK, QSYNRLPLS, the assay gave 1.78 (6 of 6 replicates; controls 0 of 18).
For KFSQQMLYEERNSNNVA, HASHRES, QQYHRLPLS, the assay gave 0.76 (6 of 6 replicates; controls 1 of 18).
For KLMQSAWLESRNFNAVA, SASQREL, QQYHRLPLS, the assay gave 0.80 (6 of 6 replicates; controls 2 of 18).
For KVSQGIFDGERNSHQIA, EVTQLCT, QQYSRLPLE, the assay gave 1.33 (6 of 6 replicates; controls 1 of 18).
For KLEQSHLYMSRNANSVA, NASTRMS, QQYHRLPLS, the assay gave -0.06 (6 of 6 replicates; controls 3 of 18).
For HITYGMMVHGRHSKSIA, QAEERAK, QQYDRLPLS, the assay gave 0.34 (1 of 6 replicates; controls 0 of 18).
For HISQSVGMTSFNKNSVA, ENNTRED, QQYDRLPLS, the assay gave 2.91 (2 of 6 replicates; controls 0 of 18).
For MISQVMNTLTRHGNNVA, DLEERER, QQYFRLPLS, the assay gave nd (0 of 6 replicates; controls 0 of 18).
For QIYQAMHTLSQIKDNVA, DVNERGS, QQYFRLPLS, the assay gave 0.22 (6 of 6 replicates; controls 1 of 18).
For TLTQITGTEKVKGNNVA, EMETRER, QQYNRLPLS, the assay gave -0.06 (6 of 6 replicates; controls 0 of 18).
For SLAYTQHFGQAGGSAVA, EVQMREQ, QQYFRLPLG, the assay gave 1.97 (5 of 6 replicates; controls 0 of 18).
For IVSQLMVWGWHAKNSIA, EAQTRLN, QQYDRLPLY, the assay gave 2.31 (1 of 6 replicates; controls 0 of 18).
For TFNLEYMGMMEDHNSIA, ETEHKTP, QQYFRLPIS, the assay gave 1.45 (6 of 6 replicates; controls 1 of 18).
For KVSQSHPYEERNANNVA, NASYRES, QQYHRLPLS, the assay gave 0.03 (6 of 6 replicates; controls 0 of 18).
For MISQVTGLGQRHRNNVA, QTSMREN, QQYDRLPLV, the assay gave 2.17 (3 of 6 replicates; controls 2 of 18).
For KQSPQDDYQSRNKNQVA, DASTRES, QQYHRLPLS, the assay gave 0.06 (6 of 6 replicates; controls 0 of 18).
For KISQMVKVGATKSNSIA, EMVTRAN, QQYHRLPLA, the assay gave 1.04 (6 of 6 replicates; controls 1 of 18).
For KLSMSYRYETEEKNSIA, ELVTRVS, QQYHRLPLS, the assay gave nd (0 of 6 replicates; controls 1 of 18).
For HIDQVKYEQKTAENNIA, SGAERVW, QQYSRLPFS, the assay gave 0.18 (6 of 6 replicates; controls 0 of 18).
For HITYGMMLYGRHSKSIA, QAEERAK, QQYDRLPLA, the assay gave 1.32 (6 of 6 replicates; controls 0 of 18).
For KLRLSQEYESRQKNSVA, NASTRCS, QQYHRLPLS, the assay gave 0.10 (6 of 6 replicates; controls 1 of 18).
For MFSDEIYAYENQANSIA, EKTELVF, QDYHRLPFA, the assay gave 0.56 (6 of 6 replicates; controls 0 of 18).
For KMNGYTLQPNMPHNNVA, HGTMREA, QQYARIPLM, the assay gave 1.02 (6 of 6 replicates; controls 0 of 18).
For KLSMTTEMEHTNRNSVA, ELVTRIS, QQYNRLPLS, the assay gave 0.58 (6 of 6 replicates; controls 1 of 18).
For HMRHEFYGYWNYDQAVA, HENQRLN, QQYSRLPLS, the assay gave 2.23 (4 of 6 replicates; controls 0 of 18).
For HISQSVMTESVWRNSVA, HQSTREQ, QQYDRLPLS, the assay gave 1.11 (6 of 6 replicates; controls 2 of 18).
For HMSMLSLQGQRHRNSVA, QMTTRVN, QQYDRLPLI, the assay gave 1.46 (6 of 6 replicates; controls 2 of 18).
For KITGLVMETSRNKNNVA, EVSTLPD, QQYHRLPLS, the assay gave 0.21 (6 of 6 replicates; controls 0 of 18).
For QIYHGVTGTSRKGNSVA, QAETRLD, QQYHRLPLM, the assay gave 1.55 (4 of 6 replicates; controls 0 of 18).
For MISQLINMGQFAINSVA, QASLRCN, QQYDRLPLM, the assay gave nd (0 of 6 replicates; controls 1 of 18).
For KMTGGLLDGNREPSNIA, AQDIGTD, QQYNRLPFI, the assay gave 0.13 (6 of 6 replicates; controls 3 of 18).
For KLSQSMEYESRNSNSVA, QASTREH, QQYHRLPLM, the assay gave 0.30 (6 of 6 replicates; controls 1 of 18).